{
  "sequences": {"note": "Sequences of proteins named here, by UniProt entry; tags and fusion partners are left off. Residues count along the entry.", "UniProt P23219, 24-599": "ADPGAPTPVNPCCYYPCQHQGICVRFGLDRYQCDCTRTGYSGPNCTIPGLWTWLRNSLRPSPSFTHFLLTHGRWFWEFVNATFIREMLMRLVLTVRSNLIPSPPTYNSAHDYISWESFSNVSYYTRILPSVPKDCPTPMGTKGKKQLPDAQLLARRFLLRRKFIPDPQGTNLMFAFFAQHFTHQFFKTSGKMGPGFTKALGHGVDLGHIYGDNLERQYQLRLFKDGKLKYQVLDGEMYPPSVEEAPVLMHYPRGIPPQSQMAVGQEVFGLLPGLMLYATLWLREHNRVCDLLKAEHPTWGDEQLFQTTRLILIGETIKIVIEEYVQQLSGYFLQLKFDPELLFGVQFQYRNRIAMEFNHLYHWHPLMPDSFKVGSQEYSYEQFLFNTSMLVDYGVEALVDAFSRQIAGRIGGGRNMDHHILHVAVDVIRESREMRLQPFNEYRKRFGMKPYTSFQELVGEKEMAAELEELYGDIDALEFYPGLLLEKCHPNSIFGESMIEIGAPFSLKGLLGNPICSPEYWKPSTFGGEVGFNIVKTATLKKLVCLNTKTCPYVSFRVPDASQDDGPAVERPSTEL"},
  "source": "patent US6440963B1",
  "about": "“Use of selective COX-2 inhibitors for the treatment of urinary incontinence” (Recordati S.A., Chemical and Pharmaceutical Company, priority 2001, dated 2002)",
  "origin": "cited, not measured here",
  "molecular_target": "T1, human COX-1 (Homo sapiens, UniProt P23219)",
  "T1 construct": "expressed in transfected cells; host or cells: CHO cells (stably transfected)",
  "conditions": "CHO cells; cited from earlier work",
  "data": [
    {"smiles": "CS(=O)(=O)c1ccc(C2=C(c3ccccc3)C(=O)OC2)cc1", "note": "[Compound C]", "values": [
      {"measurement": "IC50", "value": "> 15", "unit": "µM"}
    ]}
  ]
}
